Values of other authors in US7632832B2, “CGRP receptor antagonists” (Merck & Co., Inc., priority 2005, dated 2009).

Amino acid sequences for entries named in this document (tags omitted). Residues count along the entry.
UniProt Q63118, 24-464: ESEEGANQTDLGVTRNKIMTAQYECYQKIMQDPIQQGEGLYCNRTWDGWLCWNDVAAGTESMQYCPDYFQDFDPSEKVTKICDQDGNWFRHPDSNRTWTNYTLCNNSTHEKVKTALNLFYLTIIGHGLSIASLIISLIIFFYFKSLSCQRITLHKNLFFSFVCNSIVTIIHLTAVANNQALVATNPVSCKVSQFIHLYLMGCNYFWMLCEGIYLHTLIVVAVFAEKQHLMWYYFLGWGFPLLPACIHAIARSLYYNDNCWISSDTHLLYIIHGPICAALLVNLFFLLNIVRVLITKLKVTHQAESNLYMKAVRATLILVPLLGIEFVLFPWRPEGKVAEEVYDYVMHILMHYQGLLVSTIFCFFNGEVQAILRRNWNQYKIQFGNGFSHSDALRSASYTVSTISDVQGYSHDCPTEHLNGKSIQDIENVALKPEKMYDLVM
UniProt Q9JJ74, 27-148: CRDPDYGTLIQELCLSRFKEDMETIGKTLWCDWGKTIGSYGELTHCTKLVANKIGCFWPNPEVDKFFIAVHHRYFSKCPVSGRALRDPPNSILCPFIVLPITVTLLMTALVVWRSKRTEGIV

What was measured:
CGRP [1] = biological target: T1, CGRP (Rattus norvegicus, UniProt Q63118+Q9JJ74); conditions: rats, electrical stimulation of the dura mater, prior administration (Williamson et al. 1997)
T1 construct: host or cells: living rat (dural / facial vasculature)

CGRP [2] = biological target: T1, CGRP; conditions: trigeminal ganglion stimulation (Escott et al. 1995)

Q: Which “effect on increased diameter of the middle meningeal artery” value (CGRP [1]) does the source give for CGRP(8-37) here?
A: Its value is “blocked”.

Q: And the “effect on increased facial blood flow” value (CGRP [2])?
A: Its value is “inhibited”.
